We go through three compounds from ChEMBL document CHEMBL4396871, “Leveraging a Low-Affinity Diazaspiro Orthosteric Fragment to Reduce Dopamine D3 Receptor (D3R) Ligand Promiscuity across Highly Conserved Aminergic G-Protein-Coupled Receptors (GPCRs)” (J Med Chem, 2019).

Sequences of proteins named here, by UniProt entry; tags and fusion partners are left off.
UniProt P21728, whole entry: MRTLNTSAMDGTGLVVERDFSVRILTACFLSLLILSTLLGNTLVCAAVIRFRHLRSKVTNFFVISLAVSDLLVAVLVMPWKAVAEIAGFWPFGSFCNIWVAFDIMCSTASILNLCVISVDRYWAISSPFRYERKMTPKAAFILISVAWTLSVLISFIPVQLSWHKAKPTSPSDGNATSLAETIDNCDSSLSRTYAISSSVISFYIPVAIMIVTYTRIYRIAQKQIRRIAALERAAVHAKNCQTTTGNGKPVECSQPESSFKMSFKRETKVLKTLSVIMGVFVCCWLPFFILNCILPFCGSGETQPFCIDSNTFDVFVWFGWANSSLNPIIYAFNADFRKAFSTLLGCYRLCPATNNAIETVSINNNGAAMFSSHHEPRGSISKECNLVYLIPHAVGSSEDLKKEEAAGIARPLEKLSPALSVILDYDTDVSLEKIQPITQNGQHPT

One assay is filed under the species Homo sapiens. The assay is described as follows: Selectivity ratio of Ki for displacement of [125I]IABN from recombinant human D2 long receptor stably expressed in HEK293 cell membranes to Ki for displacement of [125I]IABN from recombinant human D3 receptor stably expressed in HEK293 cell membranes.
The next assay concerns the target D(1A) dopamine receptor (Homo sapiens, UniProt P21728). The following applies: 10 uM.

Regarding `COc1ccccc1N1CCN(CCCSc2nnc(-c3ccccc3)n2C)CC1`, the Ratio Ki in the assay listed under Homo sapiens was found to be 40.2. Besides, the inhibition (as a rule, how much of the control response was suppressed) on D(1A) dopamine receptor was less than 50%.
Consider `COc1ccccc1N1CCC2(CCN(CCCSc3nnc(-c4ccccc4)n3C)CC2)C1`, for which the Ratio Ki in the assay filed under Homo sapiens came out at 315.
Take `COc1ccccc1N1CCC2(CCN(CCCSc3nnc(-c4ccccc4)n3C)CC2)CC1`: the Ratio Ki in the assay filed under Homo sapiens came to 905. At D(1A) dopamine receptor, this compound showed an inhibition of less than 50%.
